Data on 3 proteins can be found in article PMC11923992.

Data set [1] is described as follows: cycloheximide chase, YAP turnover rate. As to conditions: glycan lost.
Data set [2] is described as follows: proliferation, clonogenic survival with carboplatin, gemcitabine, paclitaxel. As to conditions: glycan lost; control: MDA-MB-231-YAPWT.
Data set [3] is described as follows: ACM-induced YAP accumulation, immunoblot. Conditions: glycan lost; control: MDA-MB-231-YAPWT in ACM. For orientation: In western blotting, separated proteins are transferred to a membrane and probed.
Data set [4] can be described thus: YAP IP, anti-ubiquitin blot. Conditions: glycan lost; control: untreated ACM-conditioned MDA-MB-231.
Data set [5] can be described thus: YAP immunofluorescence intensity. As to conditions: glycan lost; control: untreated ACM-conditioned MDA-MB-231.
Where [6] appears, read: control: untreated ACM-conditioned MDA-MB-231.

B1: YAP (Yes-associated protein): YAPT83A (protein)
parent chain: MDPGQQPPPQPAPQGQGQPPSQPPQGQGPPSGPGQPAPAATQAAPQAPPAGHQIVHVRGDSETDLEALFNAVMNPKTANVPQTVPMRLRKLPDSFFKPPEPKSHSRQASTDAGTAGALTPQHVRAHSSPASLQLGAVSPGTLTPTGVVSGPAATPTAQHLRQSSFEIPDDVPLPAGWEMAKTSSGQRYFLNHIDQTTTWQDPRKAMLSQMNVTAPTSPPVQQNMMNSASGPLPDGWEQAMTQDGEIYYINHKNKTTSWLDPRLDPRFAMNQRISQSAPVKQPPPLAPQSPQGGVMGGSNSNQQQQMRLQQLQMEKERLRLKQQELLRQAMRNINPSTANSPKCQELALRSQLPTLEQDGGTQNPVSSPGMSQELRTMTTNSSDPFLNSGTYHSRDESTDSGLSMSSYSVPRTPDDFLNSVDEMDTGDTINQSTLPSQQNRFPDYLEAIPGTNVDLGTLEGDGMNIEGEELMPSLQEALSSDILNDMESVLAATKLDKESFLTWL
In the case of B1, the degradation_or_half_life entry in data set [1] (control: YAPWT) is recorded as “increases”. The “other: chemotherapy resistance of cells” value in data set [2] is reported as “decreases”. For the same protein, in data set [3], the expression_or_secretion entry was “abolishes”.

B2: YAP (Yes-associated protein): OSMI-1 (protein)
parent chain: B1 parent chain
With B2, in data set [1] (setting [6]), the degradation_or_half_life entry was “increases”. Further, the “other: ubiquitylation of YAP” value in data set [4] is on record as “increases”. Further, the expression_or_secretion result in data set [5] is “decreases”.

B3: YAP (Yes-associated protein): DON (GFAT inhibitor) (protein)
parent chain: B1 parent chain
In the case of B3, the degradation_or_half_life entry in data set [1] (setting [6]) was “increases”. Moreover, the expression_or_secretion entry in data set [5] was “decreases”.
